Series [1] is described as follows: In vitro stability test in rat plasma (heparin). In kind it is in vitro ADME. To be noted: 37° C., 0.1 mg/ml, mean n=3. The method, then:
(§1) The stability of peptides is analysed in different plasma and serum types. The peptides are incubated at 37° C. in plasma and samples taken at approx. 9 regular intervals between t=0 and t=156 min are analysed by HPLC.
(§2) This is done by subsequent injections of the drug, plasma, and a co-injection with the drug and the plasma, followed by optimisation of the LC method parameters until a satisfactory separation is obtained. Three parallel experiments are performed for each plasma type:100 μl of peptide is mixed with 900 μl plasma at t=0 and incubated at 37° C. (drug-plasma mixture conc. 0.1 mg/ml). Samples of 100 μl of the drug-plasma mixture are removed at appropriate intervals and the degradation stopped by precipitation of the sample with 10 μl MeCN:TFA 50:50 v/v. A control plasma sample without the drug treated in the same manner is also taken. The plasma samples are centrifuged for 15 min. at 12,000 rpm (Eppendorf centrifuge) at ambient temperature. The resulting supernatant solution is transferred to 300 μl HP autosamler vials and analyzed by HPLC. […]
(§3) The samples are analyzed in the following order: blank, the peptide at 0.1 mg/mL, the plasma without the peptide, the three parallel samples for t=0, the three parallel samples for t=5 min. the three parallel samples for t=10 min. etc. […]

Series [2] can be described thus: In vitro stability test in rabbit plasma (heparin). In kind it is in vitro ADME. The note with it: 37° C., 0.1 mg/ml, mean n=3. The procedure: as §1
This is done by subsequent injections of the drug, plasma, and a co-injection with the drug and the plasma, followed by optimisation of the LC method parameters until a satisfactory separation is obtained. Three parallel experiments are performed for each plasma type:100 μl of peptide is mixed with 900 μl plasma at t=0 and incubated at 37° C. (drug-plasma mixture conc. 0.1 mg/ml). Samples of 100 μl of the drug-plasma mixture are removed at appropriate intervals and the degradation stopped by precipitation of the sample with 10 μl MeCN:TFA 50:50 v/v. A control plasma sample without the drug treated in the same manner is also taken. The plasma samples are centrifuged for 15 min. at 12,000 rpm (Eppendorf centrifuge) at ambient temperature. The resulting supernatant solution is transferred to 300 μl HP autosamler vials and analyzed by HPLC. HPLC analysis are performed as follows: • Compound CE1 • Column: Vydac 218MS52, 250×2.1 mm, flow: 0.200 mL/min. Temp.: 40° C. • Solvent: MeCN/MQW/TFA (0.1%). Run time: 25 min. • Inj.vol.:15 μL. Detection: DAD1 A, 214.5 nm • Compound CE2 • Column: Kromasil KR100-10C8, 250×4.6 mm, flow: 1 mL/min. Temp.: 40° C. • Solvent: MeCN/MQW/TFA (0.1%). Run time: 20 min. • Inj.vol.:25 μL. Detection: VWD 1 A, 214.5 nm. • Except for rabbit serum: DAD1 A, 214.5 nm • Except for rat plasma: Solvent: MeOH/MQW/TFA (0.1%). Detection:VWD1 A, 210 nm • Compound CE3 • Column: Vydac 218MS52, 250×2.1 mm, flow: 0.200 mL/min. Temp.: 40° C. • Solvent: MeCN/MQW/TFA (0.1%). Run time: 35 min. • Inj.vol.:15 μL. Detection: DAD1 A, 214.5 nm • Compound 3 • Column: Kromasil KR100-10C8, 250×4.6 mm, flow: 1 mL/min. Temp.: 40° C. • Solvent: MeCN/MQW/TFA (0.1%). Run time: 25 min. • Inj.vol.:25 μL. Detection:DAD1 A, 214.5 nm • Compound 2 • Column: Luna 3u C18(2), 150×2 mm, flow: 0.250 mL/min.Temp.: 40° C. • Solvent: MeOH/MQW/HFBA (0.02%). Run time: 25 min. • Inj.vol.: 25 μL. Detection:DAD1 A, 214.5 nm. • Except for human plasma: Column: Luna 5u C18, 150×2 mm, Temp.: 10° C. • Except for human serum: Column: Kromasil KR100-10C8, 250×4.6 mm, • flow: 1 mL/min. Solvent: MeCN/MQW/TFA (0.1%). • Compound 27 • Column: Kromasil KR100-10C8, 250×4.6 mm, flow: 1 mL/min. Temp.: 40° C. • Solvent: MeCN/MQW/TFA (0.1%). Run time: 20 and 25 min. • Inj.vol.: 25 μL. Detection: VWD1 A, 214 nm • Compound 49 • Column: Kromasil KR100-10C8, 250×4.6 mm, flow: 1 mL/min. Temp.: 40° C. • Solvent: MeCN/MQW/TFA (0.1%). Run time: 25 min. • Inj.vol.: 25 μL. Detection: DADI A, 214.5 nm • Compound 48 180 • Column: Kromasil KR100-10C8, 250×4.6 mm, flow: 1 mL/min. Temp.: 40° C. • Solvent: MeCN/MQW/TFA (0.1%). Run time: 25 min. • Inj.vol.: 25 μL. Detection: DAD1 A, 214.5 nm
The samples are analyzed in the following order: blank, the peptide at 0.1 mg/mL, the plasma without the peptide, the three parallel samples for t=0, the three parallel samples for t=5 min. the three parallel samples for t=10 min. etc. And finally the three parallel samples for t=0 are repeated to make sure that there have been no degradation or other failure during the analyses. The sample concentrations (peak height in mAU) are plotted vs. time and fitted to a function describing a mono exponential decay (Excel). The half-life of the peptides in the different types of plasma are presented in Table 1 as mean (n=3)±standard deviation.

Series [3] in a line: In vitro stability test in rabbit serum. In kind it is in vitro ADME. The note with it: 37° C., 0.1 mg/ml, mean n=3. The method, then: as §1, §2, §3
The nature of series [4]: In vitro stability in plasma and serum, summary statement. In kind it is in vitro ADME. The method, then:
as §1, §2, §3

Series [5] in a line: In vitro stability test in human plasma (heparin). In kind it is in vitro ADME. The note with it: 37° C., 0.1 mg/ml, mean n=3. The procedure: as §1
This is done by subsequent injections of the drug, plasma, and a co-injection with the drug and the plasma, followed by optimisation of the LC method parameters until a satisfactory separation is obtained. Three parallel experiments are performed for each plasma type:100 μl of peptide is mixed with 900 μl plasma at t=0 and incubated at 37° C. (drug-plasma mixture conc. 0.1 mg/ml). Samples of 100 μl of the drug-plasma mixture are removed at appropriate intervals and the degradation stopped by precipitation of the sample with 10 μl MeCN:TFA 50:50 v/v. A control plasma sample without the drug treated in the same manner is also taken. The plasma samples are centrifuged for 15 min. at 12,000 rpm (Eppendorf centrifuge) at ambient temperature. The resulting supernatant solution is transferred to 300 μl HP autosamler vials and analyzed by HPLC. HPLC analysis are performed as follows: • Compound CE1 • Column: Vydac 218MS52, 250×2.1 mm, flow: 0.200 mL/min. Temp.: 40° C. • Solvent: MeCN/MQW/TFA (0.1%). Run time: 25 min. • Inj.vol.:15 μL. Detection: DAD1 A, 214.5 nm • Compound CE2 • Column: Kromasil KR100-10C8, 250×4.6 mm, flow: 1 mL/min. Temp.: 40° C. • Solvent: MeCN/MQW/TFA (0.1%). Run time: 20 min. • Inj.vol.:25 μL. Detection: VWD 1 A, 214.5 nm. • Except for rabbit serum: DAD1 A, 214.5 nm • Except for rat plasma: Solvent: MeOH/MQW/TFA (0.1%). Detection:VWD1 A, 210 nm • Compound CE3 • Column: Vydac 218MS52, 250×2.1 mm, flow: 0.200 mL/min. Temp.: 40° C. • Solvent: MeCN/MQW/TFA (0.1%). Run time: 35 min. • Inj.vol.:15 μL. Detection: DAD1 A, 214.5 nm • Compound 3 • Column: Kromasil KR100-10C8, 250×4.6 mm, flow: 1 mL/min. […]
as §3

Series [6] in a line: In vitro stability test in human serum. Type of series: in vitro ADME. The note with it: 37° C., 0.1 mg/ml, mean n=3. The method, then: as §1, §2, §3
For series [7] the following is noted: at one year; cited from earlier work.

Consider “H-Gly-Ala-Gly-Hyp-Pro-Tyr-NH2 [Compound CE2]”, for which the T1/2 in series [1] is 8.2 min; in series [2], 9.5 min; in series [3], 2.7 min. The “half life of degradation” value in series [4] is recorded as “less than 10 minutes”.
“3-(4-hydroxyphenyl)propionyl-Pro-Hyp-Gly-Ala-Gly-OH [Compound CE3, reference compound]”: the T1/2 is 3.7 min in series [2] and 11.9 min in series [5]. Also, in series [4], the “half life of degradation” value was “less than 12 minutes”.
As to “Cyclo(Tyr-Pro-4Hyp-Gly-Ala-Gly-Asn) [Compound 3]”, the T1/2 in series [2] and in series [6] was more than 300 min each time.
Regarding “H-Gly-Pro-Hyp-Gly-Ala-Gly-OH [Compound CE1, reference compound]”, the values for the T1/2 in series [2] and in series [5] were 4.4 min and 7.6 min, respectively.
With Amiodarone, in series [7], the “drug discontinuation due to side effects” value was “up to 20 % of patients”.

The record behind these values is patent US7250397B2, “Antiarrhythmic peptides” (Zealand Pharma A/S, priority 2000, dated 2007).
